## scFv variants of Ab-14 (light chain) against a SARS-CoV-2 spike peptide

The target is the same throughout: PDVDLGDISGINAS, from the HR2 region of SARS-CoV-2 spike.

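Phage display of a naive human antibody library on the peptide gave the parent. Designed CDR sequences, proposed from the first random library and measured here. Their group label is 14L_Ctrl (Ctrl: baseline library sampled from a position-specific scoring matrix, with some repeated check sequences). The scFvs were displayed on barcoded MATa yeast, the peptide on MATalpha yeast. After mating in shaken culture at 30 °C for 16 h, diploids were selected and their barcode pairs sequenced. A regression on co-assayed BCL2-family reference pairs converts the normalised counts of each replicate to an apparent Kd. Mating was done six times.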

Each scFv is VH, a (GGGGS)3 linker, VL, as in the parent Ab-14, and differs from it in the CDRs of the light chain only.
VH: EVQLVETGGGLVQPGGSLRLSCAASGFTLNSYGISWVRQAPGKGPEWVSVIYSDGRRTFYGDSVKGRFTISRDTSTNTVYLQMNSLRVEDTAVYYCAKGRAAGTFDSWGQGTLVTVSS
VL: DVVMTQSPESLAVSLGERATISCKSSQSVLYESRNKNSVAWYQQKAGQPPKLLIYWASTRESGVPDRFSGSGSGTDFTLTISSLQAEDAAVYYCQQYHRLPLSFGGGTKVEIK

Positions count from residue 1 of the parent VL; Q27T puts T in place of Q.
Affinities are written as log10 Kd with Kd in nM; a lower number is a better binder.
A mean of the replicates is given; it leaves out those without a signal.
"nd" marks a missing value. The strain was present, yet no cells mated with the target were sequenced in that replicate, which points to weak or no binding.
The authors' rule: three or more of the six replicates give a measured affinity, fewer mean a poor binder.
The range of this assay differs from that of the first round, and the authors advise against merging the two.
Background: pairings of all light chain designs with three empty control strains gave a value in 4% of cases (median 2.64, 5th percentile 1.59). Values in that range, when seen in few replicates, are hard to tell from nonspecific mating. The control count says in how many pairings with the empty strains this scFv gave a signal, with their mean in brackets.

| changes | log10 Kd, replicates | mean, log10 nM | control signals |
|---|---|---|---|
| Q27T+K36H | 2.85 nd 2.53 2.41 nd nd | 2.59 | 1 of 18 (2.52) |
| L30Y+K36R+T59A+R99Q | nd nd nd nd nd nd | nd | 0 of 18 |
| S25I+Y31P+W56A+Y97P+H98G | nd nd nd nd nd nd | nd | 0 of 18 |
| Q96M+R99D | nd nd nd nd nd nd | nd | 0 of 18 |
| V29M+W56R+E61A | 2.54 2.77 2.56 2.66 3.08 3.30 | 2.82 | 0 of 18 |
| E32N+N35A | 2.33 2.15 2.73 2.71 2.51 2.50 | 2.49 | 0 of 18 |
| S25Y+N35R+T59I+Q96L | nd nd nd nd nd nd | nd | 0 of 18 |
| E32N | nd 2.59 3.15 2.30 2.15 nd | 2.55 | 0 of 18 |
| S28G+Q96Y | 1.96 nd nd 1.65 1.83 nd | 1.82 | 0 of 18 |
| Y31A+Y97P | nd nd nd nd nd nd | nd | 0 of 18 |
| S28Q+S62K+H98F | 0.90 nd 1.45 nd nd 1.27 | 1.21 | 0 of 18 |
| S26D+S62T | 2.20 2.35 2.09 2.12 2.07 2.21 | 2.17 | 1 of 18 (4.07) |
| L30Y+E32D+W56H+E61P | 1.05 1.39 0.93 1.26 1.41 1.31 | 1.23 | 3 of 18 (2.01) |
| S33D+N35H+W56G | 0.77 0.67 0.59 0.75 0.59 0.97 | 0.73 | 0 of 18 |
| L30T+P101K | nd nd nd nd nd nd | nd | 1 of 18 (0.91) |
| Y31K+S33N+E61V+L102F | nd nd nd 2.73 nd 2.60 | 2.67 | 2 of 18 (2.69) |
| R34Q+A57C | nd nd nd nd nd nd | nd | 1 of 18 (1.72) |
| L30W+Y31G+Y97G+R99S+L100P | nd 2.48 2.33 4.93 3.09 1.93 | 2.95 | 2 of 18 (3.08) |
| R34E+W56A+A57S | 1.01 1.66 1.44 0.98 1.73 1.28 | 1.35 | 0 of 18 |
| Y31A+S33R+S62I | nd 2.30 nd nd nd nd | 2.30 | 1 of 18 (1.29) |
| K24R+W56E | 0.24 0.21 0.24 0.08 0.41 0.27 | 0.24 | 1 of 18 (2.64) |
| S26E+S28I | nd 2.07 2.48 nd nd nd | 2.27 | 0 of 18 |
| L30F+R34L+N35A | 0.10 0.28 0.25 0.72 0.05 0.14 | 0.26 | 0 of 18 |
| L30W+Y31M | 0.93 1.23 0.83 1.10 2.39 0.74 | 1.20 | 0 of 18 |
| Y31M+R34V+V39E+S62A+H98E | nd nd nd nd nd nd | nd | 0 of 18 |
| S26P+W56S | 0.89 1.84 1.38 1.60 1.08 1.24 | 1.34 | 1 of 18 (2.34) |
| R99D | nd 1.88 nd nd 2.64 nd | 2.26 | 1 of 18 (2.99) |
| S62L+R99H+L102Y+S103M | 1.64 1.88 nd nd nd nd | 1.76 | 2 of 18 (1.65) |
| S26R+V29L+L30E | nd 1.88 1.94 nd 1.43 nd | 1.75 | 0 of 18 |
| R34Q+S38Q+R60L+R99V | nd nd nd nd nd nd | nd | 0 of 18 |
| V29G+L30W+Y31N+W56R+S58I | 1.48 3.47 2.01 1.42 2.50 1.67 | 2.09 | 0 of 18 |
| E32Q+Y97P | nd nd nd nd nd nd | nd | 0 of 18 |
| S25A+S58G+T59V+R60K | 1.33 nd nd nd nd nd | 1.33 | 2 of 18 (2.03) |
| S25L+S33W+W56G+S58V+T59R+S62A | 1.01 1.22 1.14 1.48 1.20 1.40 | 1.24 | 1 of 18 (2.92) |
| W56H+Q95C | nd nd nd nd 4.59 2.63 | 3.61 | 1 of 18 (1.82) |

Values reported by Li et al. 2023, doi:10.1038/s41467-023-39022-2 (FLAb copy).